Conditions: forms neutral aqueous solutions

ferric ammonium citrate
pH of aqueous solutions: ~7

From patent EP4114474B1, “HEMOSTATIC AGENT” (Industria Farmaceutica Nova Argentia S.r.l., priority 2020, dated 2021)
